Source: PMC7144380 (Molecules, 2020)

Target: κ-opioid receptor (KOR), guinea pig (Cavia porcellus, UniProt P41144)
Assay: [3H]U-69593 competition, guinea pig brain membranes
Conditions: read-out: Ki ± S.E.M. (nM) / [^3H]U-69593 (κ) ^2; 50 mM Tris-HCl pH 7.4, 30 °C, 30 min; homologous competition

In the case of CN(C(=O)Cc1ccccc1)[C@H]1CC[C@@]2(CCCO2)C[C@@H]1N1CCCC1, the Ki is reported as 5.51 nM.
